This note sets out measurements from patent publication US9265816B2, “Immunogenic WT-1 peptides and methods of use thereof” (priority 2006, dated 2016).

The test system of assay [1] is CD3+ T cells. The assay can be described thus: Cross-priming: T cells stimulated with DCs incubated with tumor lysates, IFN-gamma ELISPOT against peptide-pulsed DCs. The format is cell-based, human. The procedure:
A CD3^+ in vitro stimulation was performed as described above. 2×10^6 immature DCs were incubated with total cellular lysate from 2×10^6 tumor cells that was previously prepared by 3 freeze/thaw cycles. Following an 18 hour incubation, maturation cytokines were added to the DCs as described above. CD3^+ cells were stimulated 3 times with these autologous mature DCs, after which T cells were tested in an MN-gamma ELISPOT assay for reactivity against autologous, mature DCs that had been pulsed with individual CD4^+ peptides when in the immature state. These DCs were exposed to peptide again during the ELISPOT assay as described above.
Cross-priming studies were performed to determine whether WT1-expressing cells process and present peptides of the present invention and/or the corresponding native peptides. Total tumor lysates were prepared from 3 different cell lines: 697 (WT1^+, HLA A0201^+), an e1a2 leukemia cell line; JMN (WT1^+, HLA A0201^+) a biphasic mesothelioma cell line, and as a control, MeWo (WT1^−, HLA A0201^+), a malignant melanoma cell line. DCs from healthy A0201^+ donors were incubated for 18 hours with the tumor lysates and used to stimulate autologous CD3^+ T cells. Following 3 stimulations, the T cells were tested for their reactivity to autologous DCs pulsed with the WT1 peptides. […]

Assay [2] has as its system JMN (WT1+ mesothelioma cell line). The assay is classed as cell-based. The conditions noted are these: human T cells stimulated 2 times with the peptide. The procedure: (§1) FIG. 9, left panel. […] CD8^+ T cells were incubated with radiolabeled target cells (pulsed or unpulsed 697 (A0201^+, WT1^+) or SKLY16 (A0201+, WT1-) at 3 different E:T ratios: Grey bars 100:1; Black bars 30:1; White bars 10:1. Y axis: percentage of cytotoxicity. X axis: target cell conditions. *-p<0.05 compared to SKLY16 controls at the same E:T ratio. Right panel: CD8+ T cells isolated as described for the left panel were incubated with radiolabeled JMN (solid line A0201+ WT1+) or MeWo (dashed line A0201+, WT1-) target cells at 4 different E:T ratios: Y axis: percentage of cytotoxicity. X axis: E:T ratios. P was <0.001 compared to MeWo controls. The presence of specific CTL was measured in a standard 4 h-chromium release assay. Target cells were pulsed with 10 microgram (mcg)/ml of synthetic peptides overnight at 37° C. and labeled with 300 μCi of Na2^51CrO4 (NEN Life Science Products, Inc., Boston, Mass.). After extensive washing, target cells were incubated with T cells at an E:T ratio ranging from 100:1 to 10:1. […] Supernatant fluids were harvested and radioactivity was measured in a gamma counter. Percent specific lysis was determined from the following formula: 100×[(experimental release minus spontaneous release)/(maximum release minus spontaneous release)]. Maximum release was determined by lysis of radiolabeled targets in 2.5% Triton X-100.

In assay [3] the test system is MeWo (WT1- melanoma cell line). Briefly: Chromium 51 cytotoxicity assay. The format is cell-based. The conditions noted are these: human T cells stimulated 2 times with the peptide. The procedure: as §1

Take “RMFPNAPYL (listed as Homo sapiens) [WT1 A (native)]”: the “recognition by T cells stimulated with DCs pulsed with 697 tumor lysate” value in assay [1] was “recognized”. Further, the “lysis of JMN” value in assay [2] is recorded as 19%. Also, the “lysis of MeWo” value in assay [3] was 9.2%.
